Experimental data published in patent US7319101B2, “COMT inhibitors for the treatment of depression and impaired cognition” (Hoffmann-La Roche Inc., priority 2003, dated 2008).

Target: T1, catechol-O-methyltransferase (COMT) obtained from rat liver (Rattus norvegicus, UniProt P22734)
T1 construct: from tissue; host or cells: rat liver homogenate
T1 sequence (P22734 1-264): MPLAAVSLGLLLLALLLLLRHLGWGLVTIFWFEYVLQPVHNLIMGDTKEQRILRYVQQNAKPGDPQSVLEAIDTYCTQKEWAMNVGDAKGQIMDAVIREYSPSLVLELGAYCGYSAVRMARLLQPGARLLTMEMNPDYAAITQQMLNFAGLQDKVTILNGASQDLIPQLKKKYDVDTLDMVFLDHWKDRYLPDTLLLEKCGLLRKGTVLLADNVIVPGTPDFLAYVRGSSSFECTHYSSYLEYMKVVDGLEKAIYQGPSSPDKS
Assay: COMT inhibition, radiochemical assay with rat liver homogenate (Zürcher et al.)
Type: biochemical
Details: rat liver tissue extract; substrate benzene-1,2-diol 2.5 mM, [3H]SAM 183 μM; 15 min preincubation at 37° C., pH 7.6
Procedure: As mentioned earlier, the compounds of formula I inhibit the enzyme COMT. The inhibitory activity can be determined in vitro with COMT obtained from rat liver. Rat liver homogenate is incubated in the presence of a suitable substrate as described by Zürcher et al. in J. Neurochem. 1982, 38, 191-195 and the COMT activity is measured.
The IC50 values (concentration of the inhibitor at which 50% activity of the enzyme is observed) were determined in a radiochemical assay described by Zürcher et al. (see above) and are listed in Table 1.
IC50 values were determined as follows: The inhibitors were dissolved in Me2SO as 1.2 mM stock solution and further diluted with Me2SO. The reactions were performed in standard polypropylene vials. 25 μl of the inhibitor in varying concentrations from 10^−4 to 10^−9 mol L^−1 were mixed with 215 μl freshly prepared buffer-substrate mixture consisting of 170 μl potassium phosphate buffer (0.1 mol L^−1, pH 7.6), 10 μl MgCl2, (0.1 mol L^−1), 10 μl dithiothreitol (0.065 mol L^−1) and 25 μl of tissue extract. The enzyme preparations were preincubated for 15 min at 37° C. […]
The samples were counted in a Beckmann LS 6000 TA scintillation counter.

IC50 [nM] | SMILES
29 | Nc1ncnc2c1ncn2[C@@H]1O[C@H](/C=C/CNC(=O)c2cc(-c3nc4ccccc4s3)cc(O)c2O)C(O)C1O (stereo in doubt) [Example 11, N1-{(E)-3-[(3aR,4R,6R,6aR)-5-(6-amino-9H-purin-9-yl)-3,4-dihydroxytetrahydrofuran-2-yl]prop-2-enyl}-5-benzothiazol-2-yl-2,3-dihydroxy-benzamide]
1370 | CC(C)c1cc(O)c(O)c(C(=O)NC/C=C/[C@H]2O[C@@H](n3cnc4c(N)ncnc43)C(O)C2O)c1 (stereo in doubt) [Example 17, N1-{(E)-3-[(3aR,4R,6R,6aR)-5-(6-amino-9H-purin-9-yl)-3,4-dihydroxytetrahydrofuran-2-yl]prop-2-enyl}-5-isopropyl-2,3-dihydroxy-benzamide]
